Test results: US12274731B1, “Polybasic antimalarial agents and methods of use thereof” (priority 2018, dated 2025)

Assay: in vivo
Conditions: rat

- half-life: 30 min
SMILES: NCCCC[C@H](NC(=O)[C@H](CCCCN)NC(=O)[C@H](CCCCN)NC(=O)[C@H](CCCCN)NC(=O)[C@H](CCCCN)NC(=O)[C@H](CCCCN)NC(=O)[C@H](CCCCN)NC(=O)[C@H](CCCCN)NC(=O)[C@H](CCCCN)NC(=O)[C@H](CCCCN)NC(=O)[C@H](CCCCN)NC(=O)[C@H](CCCCN)NC(=O)[C@H](CCCCN)NC(=O)[C@H](CCCCN)NC(=O)[C@H](CCCCN)NC(=O)[C@H](CCCCN)NC(=O)[C@H](CCCCN)NC(=O)[C@H](CCCCN)NC(=O)[C@H](CCCCN)NC(=O)[C@H](CCCCN)NC(=O)[C@H](CCCCN)NC(=O)[C@H](CCCCN)NC(=O)[C@H](CCCCN)NC(=O)[C@H](CCCCN)NC(=O)[C@H](CCCCN)NC(=O)[C@H](CCCCN)NC(=O)[C@H](CCCCN)NC(=O)[C@H](CCCCN)NC(=O)[C@H](CCCCN)NC(=O)[C@H](CCCCN)NC(=O)[C@H](CCCCN)NC(=O)[C@H](CCCCN)NC(=O)[C@H](CCCCN)NC(=O)[C@H](CCCCN)NC(=O)[C@H](CCCCN)NC(=O)[C@H](CCCCN)NC(=O)[C@H](CCCCN)NC(=O)[C@H](CCCCN)NC(=O)[C@H](CCCCN)NC(=O)[C@H](CCCCN)NC(=O)[C@H](CCCCN)NC(=O)[C@H](CCCCN)NC(=O)[C@H](CCCCN)NC(=O)[C@H](CCCCN)NC(=O)[C@H](CCCCN)NC(=O)[C@H](CCCCN)NC(=O)[C@H](CCCCN)NC(=O)[C@H](CCCCN)NC(=O)[C@H](CCCCN)NC(=O)[C@@H](N)CCCCN)C(=O)O
